Assay results reported in PubChem BioAssay AID456 (Sanford-Burnham Center for Chemical Genomics, 2006).
The list shows a part of the results, in another mix than the full data. Measured potencies and affinities stand elsewhere. The source made the active and inactive calls.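 The calls were made as follows: active = top tenth filtered wells with inhibition above zero that passed visual or statistical confirmation; inactive = the rest, including hits rejected on review.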

Assay: suppression of endothelial VCAM-1 upregulation – imaging, high-content imaging, pooled HUVEC, TNFa stimulus (AID 456)
Settings: HUVEC TNFa-induced VCAM-1 surface expression, immunofluorescence imaging

SMILES	outcome
Fc1ccccc1NC1CCN(Cc2ccccc2)CC1	inactive
